{
  "source": "patent US9132198B2",
  "about": "“Mitochondrial penetrating peptides as carriers for anticancer compounds” (priority 2011, dated 2015)",
  "tested_on": "leukemia cell lines (K562, M2, HL60, U937)",
  "conditions": "3 μM staurosporine, overnight",
  "data": [
    {"smiles": "CN[C@@H]1C[C@H]2O[C@@](C)([C@@H]1OC)n1c3ccccc3c3c4c(c5c6ccccc6n2c5c31)C(=O)NC4", "note": "[Staurosporine, staurosporine]", "values": [
      {"measurement": "cell death induced", "result": "less cell death in the K562 and M2 cell lines compared to HL60 and U937"}
    ]}
  ]
}
